# Data: patent US20120283274A1, “CRYSTALLINE FORMS OF SUBSTITUTED PYRAZOLOPYRIMIDINES” (priority 2009, published 2012)
# Legend:
# [1] = Determination of aqueous solubility (HPLC); settings: 23° C.; for pH of the filtrate: filtrate of the aqueous suspension after 24 hours; for Solubility: suspended in water, 24 hours, concentration of the free base by HPLC
# [2] = DVS (dynamic vapour sorption), hygroscopicity; type: physicochemical; settings: with hysteresis
# Experimental: DVS (50%->0%->95%->50% r.h.) was performed on the samples as mentioned above. The results are summarized in the following:
# Surface Measurement Systems Ltd. DVS-1 water vapour sorption analyzer and Projekt Messtechnik SPS 11-100n multi-sample water vapor sorption analyzer were used.
# The sample was allowed to equilibrate at 50% relative humidity (r.h.) before starting e.g. the following predefined humidity program: • 2 h at 0% r.h. • 0 to 95% r.h. (5%/h) • 3 h at 95% r.h. • 95 to 0% (10%/h) • 2 h at 0% r.h.
# [3] = pH 8.5
SMILES,pH of the filtrate [1],Solubility [1],relative humidity above which reversible water uptake occurs [2],solid form after solubility test (FT-Raman compared with the spectrum before) ([1]; solid after 24 hours in water),Solubility [3] [µg/mL]
"C[C@@H]1c2ccccc2CCN1C(=O)c1cc2ncc(Br)cn2n1 [Free drug compound, (6-bromo-pyrazolo[1,5-a]pyrimidin-2-yl)-(1(R)-methyl-3,4-dihydro-1H-isoquinolin-2-yl)-methanone]",8.5,below 0.01 mg/ml,,,
"C[C@@H]1c2ccccc2CCN1C(=O)c1cc2ncc(Br)cn2n1.O=C(O)c1ccc2ccccc2c1O [Example 4c, co-crystal of (6-bromo-pyrazolo[1,5-a]pyrimidin-2-yl)-(1(R)-methyl-3,4-dihydro-1H-isoquinolin-2-yl)-methanone and xinafoic acid]",5.2,40 µg/mL,above 80 % r.h.,no change in form,
"C[C@@H]1c2ccccc2CCN1C(=O)c1cc2ncc(Br)cn2n1.O=C(O)c1cc(O)ccc1O [Example 3c, co-crystal of (6-bromo-pyrazolo[1,5-a]pyrimidin-2-yl)-(1(R)-methyl-3,4-dihydro-1H-isoquinolin-2-yl)-methanone and gentisic acid]",3.0,,,,30

# Read-outs that look alike come from different tables or passages of the source.
